Data published in ChEMBL document CHEMBL2021829, “Design, Synthesis and Biological Evaluation of a Series of Novel Axl Kinase Inhibitors” (ACS Med Chem Lett, 2011).

Key:
[1] = test system: PSN1; experiment: Cytotoxicity against human PSN1 cells after 96 hrs by ATP-lite luminescence assay; format: functional, cell-based; details: PSN1, 96 h
[2] = molecular target: T1, Tyrosine-protein kinase receptor UFO (Homo sapiens, UniProt P30530)
T1 sequence (P30530 whole entry): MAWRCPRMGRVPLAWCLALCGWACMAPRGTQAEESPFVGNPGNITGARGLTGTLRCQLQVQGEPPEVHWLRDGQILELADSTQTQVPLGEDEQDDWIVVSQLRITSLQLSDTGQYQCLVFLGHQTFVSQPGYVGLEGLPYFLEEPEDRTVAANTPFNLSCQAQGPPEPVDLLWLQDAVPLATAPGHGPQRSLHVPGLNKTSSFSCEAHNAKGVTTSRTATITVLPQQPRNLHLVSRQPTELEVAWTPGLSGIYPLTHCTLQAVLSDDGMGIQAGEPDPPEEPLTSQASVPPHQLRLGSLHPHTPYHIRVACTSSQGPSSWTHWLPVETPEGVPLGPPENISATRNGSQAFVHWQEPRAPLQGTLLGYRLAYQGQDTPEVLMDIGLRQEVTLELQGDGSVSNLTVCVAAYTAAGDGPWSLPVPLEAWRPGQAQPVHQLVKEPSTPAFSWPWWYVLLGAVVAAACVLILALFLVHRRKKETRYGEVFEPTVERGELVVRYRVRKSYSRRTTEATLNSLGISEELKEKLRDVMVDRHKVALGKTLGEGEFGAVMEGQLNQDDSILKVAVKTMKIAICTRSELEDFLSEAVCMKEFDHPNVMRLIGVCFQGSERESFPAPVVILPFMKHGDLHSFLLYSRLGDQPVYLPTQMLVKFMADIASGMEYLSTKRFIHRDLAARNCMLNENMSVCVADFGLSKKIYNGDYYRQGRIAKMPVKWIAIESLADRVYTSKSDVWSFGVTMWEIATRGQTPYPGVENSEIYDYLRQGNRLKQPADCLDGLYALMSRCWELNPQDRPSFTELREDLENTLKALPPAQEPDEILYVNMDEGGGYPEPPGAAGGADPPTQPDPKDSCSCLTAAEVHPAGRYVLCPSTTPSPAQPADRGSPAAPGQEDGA

[3] = molecular target: T1, Tyrosine-protein kinase receptor UFO; experiment: Inhibition of AXL-mediated AKT Ser473 phosphorylation in human PSN1 cells assessed as decrease in GAS6-induced phospho-AKT level after 2 hrs by ELISA; format: cell-based
[4] = molecular target: T1, Tyrosine-protein kinase receptor UFO; experiment: Inhibition of AXL in human PSN1 cells assessed as decrease in GAS6-induced phospho-AXL level after 2 hrs by EILSA; format: cell-based

Row | IC50 [2] [nM] | EC50 [3] [nM] | EC50 [4] [nM] | SMILES | IC50 [1] [nM]
1 | – | – | – | CN1CCC(N(C)c2ccc(Nc3ncc(Cl)c(Nc4ccccc4S(=O)(=O)N(C)C)n3)cc2)CC1 | 410
2 | 27 | 305 | 222 | CN1CCN(Cc2ccc(Nc3ncc(Cl)c(Nc4ccccc4S(=O)(=O)N(C)C)n3)cc2)CC1 [DUBERMATINIB] | –
